Antibody variant affinities, Ab-14 light chain, assay 1

Antigen: PDVDLGDISGINAS, a 14-residue peptide of the SARS-CoV-2 spike HR2 region.

Each scFv is VH, three GGGGS repeats, VL, as in the parent Ab-14, and differs from it in the CDRs of the light chain only.
VH: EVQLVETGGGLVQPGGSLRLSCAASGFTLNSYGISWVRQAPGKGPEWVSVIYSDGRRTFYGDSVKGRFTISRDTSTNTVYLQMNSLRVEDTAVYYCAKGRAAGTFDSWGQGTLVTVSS
VL: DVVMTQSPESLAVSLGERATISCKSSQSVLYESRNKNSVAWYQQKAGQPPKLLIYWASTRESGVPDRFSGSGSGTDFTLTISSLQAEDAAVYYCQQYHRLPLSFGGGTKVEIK

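The parent was found by panning a naive human phage display library on the peptide. AAYL50 was designed without a model: most single CDR substitutions and a random sample of double and triple ones. In AlphaSeq, yeast of one mating type display the scFv and yeast of the other type display the target. Binding brings cells together so that they mate, and sequencing counts the barcode pairs among the diploids. Scores were corrected for input abundance and mapped to Kd with protein pairs of known affinity run in the same pool. Mating was done three times.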

Sequences are complete VL domains.
Every variant below is changed at A40 of the VL (sequential numbering).
Numbers give log10(Kd / nM), so 0 is 1 nM and 3 is 1 µM. Smaller is tighter.
Replicates are averaged; those with no signal do not enter the mean.
A pair that was not seen in any replicate is written "nd"; this usually means weak binding, but a binder can also be missed.
Nonspecific signal, from three strains lacking the peptide, appeared in 18% of pairings of library AAYL50, centred on 4.19 (5% of these signals below 2.99); values are not corrected for it.

Variant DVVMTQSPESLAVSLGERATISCKSSQSVLYSSRNKNSVRWYQQKAGQPPKLLIYWASTRESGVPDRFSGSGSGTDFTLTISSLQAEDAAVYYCQQYHRLPLSFGGGTKVEIK gave nd (0 of 3 replicates).
Variant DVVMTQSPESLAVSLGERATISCKSSQSVLYESTNKNSVWWYQQKAGQPPKLLIYWASTHESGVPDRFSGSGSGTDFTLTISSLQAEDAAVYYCQQYHRLPLSFGGGTKVEIK gave 4.71 (1 of 3 replicates).
Variant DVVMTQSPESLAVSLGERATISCKSSQSVLYDFRNKNSVVWYQQKAGQPPKLLIYWASTRESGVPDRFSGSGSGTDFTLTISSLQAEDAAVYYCQQYHRLPLSFGGGTKVEIK gave nd (0 of 3 replicates).
Variant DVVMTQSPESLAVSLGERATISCKSSQSVLYESRNPNSFSWYQQKAGQPPKLLIYWASTRESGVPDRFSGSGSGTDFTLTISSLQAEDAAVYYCQQYHRLPLSFGGGTKVEIK gave nd (0 of 3 replicates).
Variant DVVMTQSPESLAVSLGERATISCKSSQSVLYESRNKNSVVWYQQKAGQPPKLLIYRASTRESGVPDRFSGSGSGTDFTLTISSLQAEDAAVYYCQQVHRLPLSFGGGTKVEIK gave nd (0 of 3 replicates).
Variant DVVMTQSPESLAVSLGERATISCKSSQSVLYESRNKNSVLWYQQKAGQPPKLLIYWASTYESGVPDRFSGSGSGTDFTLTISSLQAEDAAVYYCQQYHRLPHSFGGGTKVEIK gave 6.22 (1 of 3 replicates).
Variant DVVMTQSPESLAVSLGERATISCWTSQSVLYESRNKNSVWWYQQKAGQPPKLLIYWASTRESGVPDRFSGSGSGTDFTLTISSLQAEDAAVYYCQQYHRLPLSFGGGTKVEIK gave 5.57 (1 of 3 replicates).
Variant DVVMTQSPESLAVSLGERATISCKSSQSVLYESRNLNSVKWYQQKAGQPPKLLIYWASTREFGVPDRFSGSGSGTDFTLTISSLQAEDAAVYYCQQYHRLPLSFGGGTKVEIK gave nd (0 of 3 replicates).
Variant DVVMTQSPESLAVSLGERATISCKSSQIVLYESRNKNSVKWYQQKAGQPPKLLIYWASTRESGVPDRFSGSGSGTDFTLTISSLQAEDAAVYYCFQYHRLPLSFGGGTKVEIK gave nd (0 of 3 replicates).
Variant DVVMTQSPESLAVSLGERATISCKSSQSVLYENRNKNSVPWYQQKAGQPPKLLIYWASTRESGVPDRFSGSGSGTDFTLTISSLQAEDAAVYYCQQYHRLCLSFGGGTKVEIK gave 4.36 (1 of 3 replicates).
Variant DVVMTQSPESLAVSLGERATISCKSSQSVLYESRRKNSVGWYQQKAGQPPKLLIYWASTRRSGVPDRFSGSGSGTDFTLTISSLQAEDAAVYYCQQYHRLPLSFGGGTKVEIK gave nd (0 of 3 replicates).
Variant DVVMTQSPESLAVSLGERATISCKSSQSVLYESRNKSSVFWYQQKAGQPPKLLIYWASTRCSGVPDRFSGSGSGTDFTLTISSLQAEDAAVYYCQQYHRLPLSFGGGTKVEIK gave 4.83 (1 of 3 replicates).
Variant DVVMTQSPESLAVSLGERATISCKSSQSVLYESRNKNSVFWYQQKAGQPPKLLIYWASTREHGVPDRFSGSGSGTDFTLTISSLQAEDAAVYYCQQYHTLPLSFGGGTKVEIK gave nd (0 of 3 replicates).
Variant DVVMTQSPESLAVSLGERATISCKSSQSVLYEDRNKNSSLWYQQKAGQPPKLLIYWASTRESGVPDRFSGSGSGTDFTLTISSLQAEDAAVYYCQQYHRLPLSFGGGTKVEIK gave 5.42 (1 of 3 replicates).
Variant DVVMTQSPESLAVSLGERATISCKSSQSVLYNSRPKNSVEWYQQKAGQPPKLLIYWASTRESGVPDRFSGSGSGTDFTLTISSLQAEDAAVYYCQQYHRLPLSFGGGTKVEIK gave 4.82 (2 of 3 replicates).
Variant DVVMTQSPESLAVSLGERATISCKSSQSVLYEQRNKNSVFWYQQKAGQPPKLLIYWAPTRESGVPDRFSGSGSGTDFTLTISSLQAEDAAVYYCQQYHRLPLSFGGGTKVEIK gave 4.72 (2 of 3 replicates).
Variant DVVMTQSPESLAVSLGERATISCKSSQSVLYQSRNKNSYKWYQQKAGQPPKLLIYWASTRESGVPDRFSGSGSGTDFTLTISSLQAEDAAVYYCQQYHRLPLSFGGGTKVEIK gave 3.50 (2 of 3 replicates).
Variant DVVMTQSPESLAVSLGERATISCKSSQSVLYESRNKNSVCWYQQKAGQPPKLLIYWAATRESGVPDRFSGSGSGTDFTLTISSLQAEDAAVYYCYQYHRLPLSFGGGTKVEIK gave nd (0 of 3 replicates).
Variant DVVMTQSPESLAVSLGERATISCKSSQSCLEESRNKNSVEWYQQKAGQPPKLLIYWASTRESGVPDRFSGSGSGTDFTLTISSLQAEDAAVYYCQQYHRLPLSFGGGTKVEIK gave 3.78 (2 of 3 replicates).
Variant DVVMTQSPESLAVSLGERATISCKSSMSVLYESANKNSVQWYQQKAGQPPKLLIYWASTRESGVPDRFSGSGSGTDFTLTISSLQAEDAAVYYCQQYHRLPLSFGGGTKVEIK gave nd (0 of 3 replicates).
Variant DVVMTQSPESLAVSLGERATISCKSSQSVLYESRNKNKVKWYQQKAGQPPKLLIYWAVTRESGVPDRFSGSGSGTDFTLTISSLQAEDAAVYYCQQYHRLPLSFGGGTKVEIK gave nd (0 of 3 replicates).
Variant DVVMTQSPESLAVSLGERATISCKSSQSCLYESRNKNSVQWYQQKAGQPPKLLIYWASTRESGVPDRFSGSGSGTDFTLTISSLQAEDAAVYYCQQYHELPLSFGGGTKVEIK gave nd (0 of 3 replicates).
Variant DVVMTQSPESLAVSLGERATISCKSIQSVLYDSRNKNSVKWYQQKAGQPPKLLIYWASTRESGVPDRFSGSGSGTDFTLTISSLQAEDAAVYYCQQYHRLPLSFGGGTKVEIK gave 5.21 (3 of 3 replicates).
Variant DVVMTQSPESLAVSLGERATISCKSSVSVLYESRNKNSVVWYQQKAGQPPKLLIYWASTRWSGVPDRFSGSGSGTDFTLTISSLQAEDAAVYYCQQYHRLPLSFGGGTKVEIK gave 3.34 (1 of 3 replicates).

Source: Engelhart et al. 2022 (doi:10.1038/s41597-022-01779-4), MIT Lincoln Laboratory and A-Alpha Bio; data file from the FLAb repository.